In patent US11760766B2, “Ionic liquids containing quaternary ammonium and phosphonium cations, and their use as environmentally friendly lubricant additives” (UT-Battelle, LLC, priority 2020, dated 2023):

Test system: Ceriodaphnia dubia
Assay: 7-day chronic ecotoxicity test, standard EPA protocol
Conditions: for Effect on Daphnia reproduction, in words: 7-day test, 0.5 ppm additive; for Total reproductive output (number of neonates) in surviving Daphnia / Number of surviving Daphnia: 0.5 ppm additive in 10 ppm PAG; for Number of surviving Daphnia: started with 10 individuals

Row | Substance | Effect on Daphnia reproduction, in words | Total reproductive output (number of neonates) in surviving Daphnia (Day 1) | Number of surviving Daphnia (Day 1) | Total reproductive output (number of neonates) in surviving Daphnia (Day 2) | Number of surviving Daphnia (Day 2) | Total reproductive output (number of neonates) in surviving Daphnia (Day 3) | Number of surviving Daphnia (Day 3) | Total reproductive output (number of neonates) in surviving Daphnia (Day 4) | Number of surviving Daphnia (Day 4) | Total reproductive output (number of neonates) in surviving Daphnia (Day 5) | Number of surviving Daphnia (Day 5) | Total reproductive output (number of neonates) in surviving Daphnia (Day 6) | Number of surviving Daphnia (Day 6) | Total reproductive output (number of neonates) in surviving Daphnia (Day 7) | Number of surviving Daphnia (Day 7) | Total reproductive output (number of neonates) in surviving Daphnia (Total over 7 days) | Mortality of Daphnia (within 24 hours, 0.5 ppm) [%]
1 | Tetraoctylammonium octadecanoate | reduced or halted reproduction | – | – | – | – | – | – | – | – | – | – | – | – | – | – | – | –
2 | zinc dialkyldithiophosphate | no reproduction was observed | 0 | 8 | 0 | 0 | 0 | 0 | 0 | 0 | 0 | 0 | 0 | 0 | 0 | 0 | 0 | 100
